By UniProt entry, the sequences of proteins in these tests, tags left out. Residues count along the entry.
UniProt P69905, 2-142 limits assumed, chain 1 of 2: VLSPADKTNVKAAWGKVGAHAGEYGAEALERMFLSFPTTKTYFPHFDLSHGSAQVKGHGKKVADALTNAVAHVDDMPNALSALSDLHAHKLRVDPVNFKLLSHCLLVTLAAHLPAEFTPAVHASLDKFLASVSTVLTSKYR
human hemoglobin, UniProt P68871, 2-147 limits assumed, chain 2 of 2: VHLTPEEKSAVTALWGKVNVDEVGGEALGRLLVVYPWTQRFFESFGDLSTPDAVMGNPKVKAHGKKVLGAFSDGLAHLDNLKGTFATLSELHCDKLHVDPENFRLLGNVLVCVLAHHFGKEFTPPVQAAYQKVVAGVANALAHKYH

According to patent publication US20080075726A1 (VACCINEX, published 2008):

Molecular target: human hemoglobin (human, UniProt P69905 2-142; P68871 2-147)
Assay: ELISA on a panel of control antigens (data not shown)

binding result: no binding
B1: mAb 1339 (antibody, human IgG1, kappa, V domains shown)
VH: QVTLKESGPTLVKPTQTLTLTCSFSGFSLSTSGVGVGWVRQPPGKALEWLAFIWWDDDKYYSPSLESRLTITKDTSKNQVVLTMTNMDPVDTATYYCARSADDYLYYSFDTWGQGTLVTVSS
VL: DIQMTQSPSSLSAFVGDGVTMTCWASQSINDYLNWYHQRPGEAPELLVFAASNLQIGVPSRFRGSGSETYFTLTINSLQPEDSGTYFCQNAHSFPLTFGGGTKLEIKR
